From patent US7026328B2, “Heterocyclic compounds which inhibit leukocyte adhesion mediated by α4 integrins” (Elan Pharmaceuticals, Inc., priority 2002, dated 2006) come the findings set out here.

By UniProt entry, the sequences of proteins in these tests, tags left out. Residues count along the entry.
UniProt P13612, 34-1032: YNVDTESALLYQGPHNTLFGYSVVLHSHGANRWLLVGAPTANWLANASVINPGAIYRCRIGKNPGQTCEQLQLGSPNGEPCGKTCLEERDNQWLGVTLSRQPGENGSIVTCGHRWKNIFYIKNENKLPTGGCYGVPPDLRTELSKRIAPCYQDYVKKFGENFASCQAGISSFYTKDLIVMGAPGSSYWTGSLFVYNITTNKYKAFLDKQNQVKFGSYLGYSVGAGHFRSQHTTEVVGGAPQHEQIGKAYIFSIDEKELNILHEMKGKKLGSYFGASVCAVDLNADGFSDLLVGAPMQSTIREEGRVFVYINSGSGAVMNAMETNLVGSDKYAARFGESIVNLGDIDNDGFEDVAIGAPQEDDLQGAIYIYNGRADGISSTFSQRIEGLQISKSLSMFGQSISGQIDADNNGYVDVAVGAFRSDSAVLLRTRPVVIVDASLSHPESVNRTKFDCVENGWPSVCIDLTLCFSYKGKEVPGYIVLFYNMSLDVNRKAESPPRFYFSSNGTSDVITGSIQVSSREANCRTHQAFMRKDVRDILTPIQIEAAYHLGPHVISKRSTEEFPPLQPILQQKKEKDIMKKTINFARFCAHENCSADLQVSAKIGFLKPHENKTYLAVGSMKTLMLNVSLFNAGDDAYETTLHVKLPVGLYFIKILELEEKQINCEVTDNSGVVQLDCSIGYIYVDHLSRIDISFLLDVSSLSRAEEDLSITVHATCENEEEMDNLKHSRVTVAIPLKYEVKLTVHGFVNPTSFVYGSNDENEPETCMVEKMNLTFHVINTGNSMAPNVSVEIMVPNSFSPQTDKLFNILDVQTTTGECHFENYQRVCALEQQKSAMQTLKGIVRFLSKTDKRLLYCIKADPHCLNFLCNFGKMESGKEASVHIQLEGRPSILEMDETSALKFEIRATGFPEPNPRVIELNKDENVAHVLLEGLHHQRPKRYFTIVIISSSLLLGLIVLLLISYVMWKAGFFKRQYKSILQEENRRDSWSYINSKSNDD

This experiment concerns the target T1, α4β1 integrin (Homo sapiens, UniProt P05556+P13612).
T1 construct: Jurkat™ cells (maintained in log phase growth) were labeled with Calcein AM; endogenous in cells; host or cells: Jurkat cells
As to the kind of experiment: α4β1 Integrin Adhesion Assay: Jurkat Cell Adhesion to Human Plasma Fibronectin. In kind it is cell-based. The note with it: Jurkat cells. How it is done:
96 well plates (Costar 3590 EIA plates) were coated with human fibronectin (Gibco/BRL, cat #33016–023) at a concentration of 10 μg/mL overnight at 4° C. The plates were then blocked with a solution of bovine serum albumin (BSA; 0.3%) in saline. Jurkat™ cells (maintained in log phase growth) were labeled with Calcein AM according to the manufacturer's instructions, and suspended at a concentration of 2×10^6 cells/mL in Hepes/Saline/BSA. The cells were then exposed to test and control compounds for 30 minutes at room temperature before transfer to individual wells of the fibronectin coated plate. Adhesion was allowed to occur for 35 minutes at 37° C. The wells were then washed by gentle aspiration and pipetting with fresh saline. Fluorescence associated with the remaining adherent cells was quantified using a fluorescence plate reader at EX 485/EM 530. […]
The cell staining was accomplished by first harvesting the log-phase Jurkat™ cells by centrifugation in 50 mL tubes (1100 rpm for 5 minutes). […] The volume was brought to 50 mL with Hepes/Saline buffer and the cells were counted, spun, and resuspend to 2×10^6 cells/mL in Hepes/Saline buffer or human serum. […]
Fibronectin adhesion was measured using a fluorescent plate reader at EX 485/EM 530 after the following work up procedure. […]

Molecules are shown by their SMILES.

`C#CCN(c1cnc(N(CC)CC)nc1N[C@@H](Cc1ccc(OC(=O)N2CCCC2)cc1)C(=O)O)S(=O)(=O)c1ccc(F)cc1` [Example 15, N-(2-[N′,N′-diethylamino]-5-[N″-(4-fluorophenylsulfonyl)-N″-propargylamino]pyrimidin-4-yl)-4′-(pyrrolidin-1-ylcarbonyloxy)-L-phenylalanine]: the IC50 was 1730 nM (containing human serum) and 98.6 nM (without the human serum).

For orientation: IC50 means the concentration that inhibits the measured activity by half. Read a low IC50 as higher potency.
